Measurements as given in BindingDB's records for US9062078.

Sequences of proteins named here, by UniProt entry; tags and fusion partners are left off.
UniProt O43614, whole entry, looked up: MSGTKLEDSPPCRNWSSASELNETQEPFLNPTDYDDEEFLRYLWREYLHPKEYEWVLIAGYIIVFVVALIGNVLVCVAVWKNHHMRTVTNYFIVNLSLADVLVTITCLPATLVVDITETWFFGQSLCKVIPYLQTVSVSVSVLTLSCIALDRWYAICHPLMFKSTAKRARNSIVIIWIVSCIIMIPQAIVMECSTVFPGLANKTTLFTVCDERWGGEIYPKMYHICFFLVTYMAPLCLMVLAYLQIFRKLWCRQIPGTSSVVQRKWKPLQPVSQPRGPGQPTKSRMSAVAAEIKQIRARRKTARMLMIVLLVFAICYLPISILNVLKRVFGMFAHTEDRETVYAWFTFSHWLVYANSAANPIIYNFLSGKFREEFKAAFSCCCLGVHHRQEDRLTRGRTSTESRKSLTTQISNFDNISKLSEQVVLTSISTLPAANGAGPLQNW
UniProt O43613, whole entry, looked up: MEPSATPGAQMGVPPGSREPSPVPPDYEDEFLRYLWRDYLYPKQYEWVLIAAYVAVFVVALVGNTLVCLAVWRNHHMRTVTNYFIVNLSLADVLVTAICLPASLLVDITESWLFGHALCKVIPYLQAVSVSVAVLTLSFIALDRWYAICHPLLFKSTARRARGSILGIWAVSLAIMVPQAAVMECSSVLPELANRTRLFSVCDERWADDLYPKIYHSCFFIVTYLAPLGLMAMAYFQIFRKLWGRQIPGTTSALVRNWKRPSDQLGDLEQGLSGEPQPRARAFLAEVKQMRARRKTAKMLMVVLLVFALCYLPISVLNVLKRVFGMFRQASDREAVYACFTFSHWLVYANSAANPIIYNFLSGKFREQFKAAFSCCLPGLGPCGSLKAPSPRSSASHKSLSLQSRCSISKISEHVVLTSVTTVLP

Assays:
Orexin receptor type 2 = Orexin receptor type 2 (Homo sapiens, UniProt O43614); experiment: Radioligand Binding Assay
[1] = molecular target: Orexin/Hypocretin receptor type 1 (Homo sapiens, UniProt O43613); experiment: Radioligand Binding Assay

Cc1ccc(-n2nccn2)c(C(=O)N2C3CCC2C(Nc2ccc(Br)cn2)C3)n1 (configuration not stated)
Ki (Orexin receptor type 2): 1100 nM
Ki [1]: 26 nM
